According to US8889379B2, “Biocatalytic production of glycosides” (Universiteit Gent, priority 2010, dated 2014):

Tested on: cellobiose
Experiment: purified protein, by the assay type
Conditions: other: synthetic reaction, 50 mM MES buffer pH 6.5 at 45° C.

cellodextrin phosphorylase from Clostridium stercorarium (CsCDP) (Thermoclostridium stercorarium subsp. stercorarium DSM 8532)
Km: 447 ± 5 µM | kcat: 18.1 s⁻¹ | kcat/Km: 40000 M⁻¹ s⁻¹
